Test: Selectivity index, ratio of IC50 for inhibition of wild type EGFR (unknown origin) to IC50 for inhibition of EGFR L858R/T790M mutant (unknown origin)

SMILES | Ratio IC50
Cn1cc(-c2ccnc(Nc3cc(OCCOCCn4ccnc4[N+](=O)[O-])ccc3F)n2)c2ccccc21 | 38.5
COc1ccc(Nc2nccc(-c3cn(C)c4ccccc34)n2)cc1OCCOCCn1ccnc1[N+](=O)[O-] | 8.85

From ChEMBL document CHEMBL5325467, “Discovery of novel hypoxia-activated, nitroimidazole constructed multi-target kinase inhibitors on the basis of AZD9291 for the treatment of human lung cancer” (Bioorg Med Chem, 2023)
